# Ab-14 light chain CDR variants: yeast mating affinities

From the AlphaSeq antibody data of Engelhart et al. 2022 (doi:10.1038/s41597-022-01779-4), copy in the FLAb collection.

Antigen: PDVDLGDISGINAS, a 14-residue peptide of the SARS-CoV-2 spike HR2 region.

Parent: Ab-14, a human scFv built as VH, a 15-residue (Gly4Ser)3 linker, VL. Only the CDRs of the light chain vary.
VH: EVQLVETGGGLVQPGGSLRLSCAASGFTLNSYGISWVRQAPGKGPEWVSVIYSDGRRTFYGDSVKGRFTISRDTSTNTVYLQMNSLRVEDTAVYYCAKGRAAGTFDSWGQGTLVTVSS
VL: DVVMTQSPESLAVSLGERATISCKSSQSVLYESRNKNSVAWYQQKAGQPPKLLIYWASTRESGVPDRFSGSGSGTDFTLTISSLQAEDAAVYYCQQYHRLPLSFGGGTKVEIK

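The starting antibody came from a phage panning campaign against this peptide. The library (AAYL50) carries one to three amino acid substitutions per variant, with no insertions or deletions. The scFvs were displayed on barcoded MATa yeast, the peptide on MATalpha yeast. After mating in shaken culture at 30 °C for 16 h, diploids were selected and their barcode pairs sequenced. The ratio of observed to expected reads was calibrated, replicate by replicate, on BCL2-family standards whose Kd was known from biolayer interferometry. Each pool was mated in three replicate cultures.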

Variants are written as CDR1, CDR2 and CDR3 of the light chain (limits as in the source). Parent: KSSQSVLYESRNKNSVA, WASTRES, QQYHRLPLS. All variants listed here change P101 of the VL, counted from its first residue. Affinities are written as log10 Kd with Kd in nM; a lower number is a better binder. "nd" means that the variant was in the library but no mating with the target was seen in that replicate; the authors take this as a sign of poor binding, and no number exists. As a blank, each scFv also met three strains without target: over library AAYL50, 18% of these pairings were detected, typically at 4.19 and seldom below 2.99. In this assay the parent's reference entry averaged 0.65; its copy inside this library read 1.68.

Variant KSSQSVLYESRNTNSVA / WPSTRES / QQYHRLNLS gave nd, nd, nd.
Variant KSSQSQLYESRNKNSVA / WASTAES / QQYHRLTLS gave nd, nd, nd.
Variant KSSQSVLYESLNKNSVA / WASTRES / LQYHRLRLS gave 1.34, 1.50, 1.72.
Variant KSSQSSLYESRNKNSVA / WASTRES / QQYHRLVLV gave nd, 3.45, 3.46.
Variant KSSQSVLYESRNKNSVA / WASTREC / QQYERLWLS gave 2.44, 2.91, 3.28.
Variant KSSQSVLYESRNKNSVA / WASTRET / QQYHRTFLS gave nd, nd, 4.48.
Variant KSSQSVLYPSRNKNSVA / WASTRES / QQYHRLILF gave 2.16, 2.22, 1.88.
Variant KSSQSVLYESVNKNSVA / WASTREG / QQYHRLELS gave nd, nd, nd.
Variant KSSQSVLYESRNRNSVA / WASTRES / QQYHRLWLS gave 1.54, 2.11, 1.95.
Variant KSSQSVLYESQNKNSVA / WASTRES / QQYHRLCHS gave 2.30, 2.45, 2.59.
Variant QSSQSVLAESRNKNSVA / WASTRES / QQYHRLDLS gave nd, 3.28, nd.
Variant KSSQSVLYESRNKNSVA / WCSTRES / QFYHRLQLS gave nd, 2.87, 3.41.
Variant KSSQSVLLESRNKPSVA / WASTRES / QQYHRLVLS gave nd, nd, nd.
Variant KSSQSPLYESRNKNSVA / WASTRES / QQYHRLMPS gave 1.96, 1.87, 1.80.
Variant KSSQSVLYESRNKNSVA / WASTRES / QQYHRLMLS gave nd, nd, 4.24.
Variant KSSQSVLYESRNKNSVA / WASTRES / WQYHRLTQS gave nd, nd, nd.
Variant NSSQSVLCESRNKNSVA / WASTRES / QQYHRLELS gave 2.39, 2.75, 2.46.
Variant KSSQSVLYESRNKNSIA / WASTRES / QQKHRLALS gave nd, nd, nd.
Variant KSSQSVLYESRNKNSVA / WAATRES / QQYHRLGLS gave nd, nd, nd.
Variant KSSQSVLYRSYNKNSVA / WASTRES / QQYHRLQLS gave nd, nd, nd.
Variant LSSQSVLYCSRNKNSVA / WASTRES / QQYHRLKLS gave nd, 3.34, nd.
Variant KSSQSVLYESRNKNSVA / WLSTRES / QQYHRLHIS gave nd, nd, nd.
Variant KSSQSVVYESRNKNSVA / WASTRES / QQYWRLFLS gave nd, 4.46, nd.
Variant KSHQSVVYESRNKNSVA / WASTRES / QQYHRLHLS gave nd, nd, nd.
Variant KSSTSVLYESRNKNSVA / WASTRCS / QQYHRLYLS gave 0.80, 1.22, 1.46.
Variant KSSQSVLYESRNKNSVA / WCSTRES / QQYHRLILS gave 1.37, nd, 2.71.
Variant KSSQSQLYESRNKNEVA / WASTRES / QQYHRLLLS gave nd, nd, nd.
Variant KSSQSVLYESRNKLSVA / WASTRES / IQYHRLELS gave 1.92, 2.14, 2.16.
Variant KSSQRVLYESRNKVSVA / WASTRES / QQYHRLELS gave nd, nd, nd.
Variant KSSQSVLYESRNKHHVA / WASTRES / QQYHRLVLS gave nd, nd, 4.40.
Variant KSSQSVLYESRNKNSVA / WASTRGS / AQYHRLYLS gave nd, nd, nd.

The first 5 variants above that were never detected:

CDR-L1	CDR-L2	CDR-L3	log10 Kd, replicates
KSSQSVLYESRNTNSVA	WPSTRES	QQYHRLNLS	nd, nd, nd
KSSQSQLYESRNKNSVA	WASTAES	QQYHRLTLS	nd, nd, nd
KSSQSVLYESVNKNSVA	WASTREG	QQYHRLELS	nd, nd, nd
KSSQSVLLESRNKPSVA	WASTRES	QQYHRLVLS	nd, nd, nd
KSSQSVLYESRNKNSVA	WASTRES	WQYHRLTQS	nd, nd, nd